Screens from PubChem BioAssay.
In the library only some 1.8% were active in any assay of this set; here they are far more common.
DENV2 CPE rescue – inhibitors of DENV2 cytopathic effect, primary screen, cell-based, plate reader, single concentration | CPE inhibition, % at 9.99 µM | 350,000 tested, 1.7% active | DENV2-infected cells, cytopathic effect rescue; in the data active = CPE inhibition above about 20%, passing the limit was not always enough; inconclusive = no clear call, values can overlap the other calls; tested in BHK-21 cells;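 also: 0% = median of neutral control wells and 100% = median of positive control wells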
E-selectin induc – E-selectin induction in HUVECs, primary screen, imaging, HUVEC, immunofluorescence imaging, single point. normalized: neutral wells 0, TNF-alpha wells 100. 260,000 tested, 0.37% active. P16581. activation, % at 7.58 µM;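 active = mean E-selectin-positive cell signal at least 10% of the positive control, reached in at least 60% of replicates, without over 20% cell loss; inconclusive = no rule given, readout overlaps actives, possibly toxicity-flagged; inactive = the rest, including those meeting only one limit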
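Read-out: % PE-positive cells | Test system: HUVEC | Doses: One compound dose added by pin transfer | Buffer or medium: EGM-2 over gelatin coat | Signal: Immunofluorescence imaging | Benchmarks: TNF-alpha, DMSO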
Cneo AK release – Cryptococcus neoformans cell lysis inducers, primary screen, AK release luminescence, single concentration; C. neoformans lysis, adenylate kinase release luminescence, 4 h; normalised: neutral wells 0, clomiphene wells 100; lysis activity, % at 15 µM; 360,000 tested, 0.2% active;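 active = mean lysis activity across replicates of at least 80%, whatever share of replicates individually reach that level; inactive = mean lysis activity below 80%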
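Assay system: Cryptococcus neoformans yeast cells / Dosing: single-point compound dose / Timing: 4 h at 37 °C static, read 1 h later / Measured by: luminescence of released adenylate kinase using an AK detection reagent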
UUG fidelity – alters start codon recognition fidelity in yeast. S. cerevisiae UUG-firefly luciferase reporter, luminescence/redox ratio. AID 602363. activity score, % at 18.7 µM. hit rate 0.13% among 350,000;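 active = replicate mean at a twofold rise or more, about +100% in these data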;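 note: firefly luciferase made from a UUG start codon reports start codon fidelity; reporter light over untreated wells divided by growth signal over untreated wells; some hits fall short of that in this replicate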
The depositor's hits bear a star; ? = inconclusive; / = no result given; ! = not confirmed by another sample.

1) Cc1ccc(S(=O)(=O)N[C@H]2CC[C@H](CCNC(=O)C3CCOCC3)O[C@@H]2CO)cc1
2) Cc1ccc(S(=O)(=O)N[C@@H]2CC[C@H](CCNC(=O)C3CCCC3)O[C@@H]2CO)cc1
3) Cc1ccc(S(=O)(=O)N[C@@H]2CC[C@@H](CCNC(=O)CN3CCOCC3)O[C@H]2CO)cc1
4) Cc1ccc(S(=O)(=O)N[C@H]2CC[C@@H](CCNC(=O)C3CCCC3)O[C@@H]2CO)cc1
5) CC(C)NC(=O)Nc1ccc2c(c1)C(=O)N([C@@H](C)CO)C[C@H](C)[C@H](CN(C)C(=O)NC1CCCCC1)O2
6) CC#CCN1C(=O)N[C@@H](c2ccccc2)C(C(=O)OC)=C1C
7) COC(=O)C1=C(C)N(Cc2ccccc2)C(=S)N[C@H]1c1cccc(F)c1
8) COC(=O)C1=C(C)N(CC(C)C)C(=S)NC1c1cccc(F)c1 (centres undefined)
9) COC(=O)C1=C(C)N(Cc2ccc(F)cc2)C(=S)NC1c1cccc(F)c1 (centres undefined)
10) COC(=O)C1=C(C)N(Cc2ccccc2)C(=O)N[C@H]1c1ccc(Br)cc1

assay / compound	1	2	3	4	5	6	7	8	9	10
DENV2 CPE rescue	25.2*	2.4	25.9*	-4.3	3.5	32.6*	-9.6	55.9*	5.8	-7.3
E-selectin induc	-0.1	-0.1	0.5	?	0.2	0.5	-0.1	1.0	-0.2	0.0
Cneo AK release	-7.6	85.8*	-2.4	-1.3	7.5	0.7	180.1*	/	/	-0.1
UUG fidelity	-7.3	14.3	0.4	-2.8	/	-1.0	-34.2	/	/	12.5

11) CCC[N+](CC#Cc1ccccc1)(CCC)CC(=O)c1ccc(Cl)cc1
12) O=C(C[C@H]1C=C[C@H](NC(=O)C2CC2)[C@@H](CO)O1)NCc1ccccc1Cl
13) CCCCn1c(N)c(N(CC(C)C)C(=O)c2ccc(S(=O)(=O)N3CCCCC3)cc2)c(=O)[nH]c1=O
14) CCCCn1c(N)c(N(CC)C(=O)c2cc(C)cc(C)c2)c(=O)[nH]c1=O
15) CCCCn1c(N)c(N(CC(C)C)C(=O)c2cccc(S(=O)(=O)N3CCCCC3)c2)c(=O)[nH]c1=O
16) CCCCn1c(N)c(N(CC)C(=O)c2ccncc2)c(=O)[nH]c1=O
17) CCC(=O)N1CC2(CN(Cc3ccncc3)C2)c2c(n(C)c3cc(OC)ccc23)[C@H]1CO
18) C[C@H]1CN([C@@H](C)CO)C(=O)c2cccc(NC(=O)Nc3ccccc3)c2O[C@@H]1CN(C)Cc1ccc(C(F)(F)F)cc1
19) CC(C)NC(=O)Nc1cccc2c1O[C@@H](CN(C)Cc1ccc(C(F)(F)F)cc1)[C@H](C)CN([C@H](C)CO)C2=O
20) CC(C)NC(=O)Nc1cccc2c1O[C@@H](CN(C)Cc1ccc(Cl)c(Cl)c1)[C@@H](C)CN([C@H](C)CO)C2=O

assay / compound	11	12	13	14	15	16	17	18	19	20
DENV2 CPE rescue	45.8*	15.1	4.1	35.0*	-8.0	-3.0	-3.1	3.0	3.1	-2.0
E-selectin induc	/	0.4	57.9*	/	/	-2.4	0.3	0.5	28.9*	44.1*
Cneo AK release	/	-1.8	3.2	-1.6	4.8	0.4	/	0.6	-2.1	-0.1
UUG fidelity	/	-9.6	-4.0	-1.5	-8.7	0.6	/	8.2	-0.5	/

21) C[C@@H]1CN([C@@H](C)CO)C(=O)c2cccc(NC(=O)Nc3ccc(F)cc3)c2O[C@@H]1CN(C)Cc1ccc(Oc2ccccc2)cc1
22) C[C@H]1CN([C@@H](C)CO)C(=O)c2cccc(NC(=O)Nc3ccc(F)cc3)c2O[C@@H]1CN(C)Cc1ccc(Oc2ccccc2)cc1
23) C[C@H](CO)N1C[C@H](C)[C@@H](CN(C)Cc2ccc(Oc3ccccc3)cc2)Oc2c(NC(=O)Nc3ccc(C(F)(F)F)cc3)cccc2C1=O
24) NCC[C@@H]1CC[C@H](NC(=O)C2CC2)[C@@H](CO)O1
25) O=C(NCC[C@@H]1CC[C@@H](NC(=O)C2CCCCC2)[C@@H](CO)O1)c1cc(Cl)cc(Cl)c1
26) O=C(C1=C[C@@H](c2ccccc2)C[C@@H](OCc2ccc(CO)cc2)O1)N1CCCC1
27) COc1cccc(C2c3[nH]c4ccccc4c3C[C@H]3C(=O)N(c4ccccc4C(=O)N4CCC(C(=O)O)CC4)C(=O)N23)c1 (some centres undefined)
28) CO[C@@H]1CN(C)C(=O)c2ccc(NC(=O)C3CC3)cc2OC[C@H](C)N(C(=O)Cc2ccccn2)C[C@H]1C
29) COc1ccc(S(=O)(=O)N(C)C[C@H]2Oc3ccc(NC(=O)Nc4ccc5c(c4)OCO5)cc3CC(=O)N([C@H](C)CO)C[C@@H]2C)cc1
30) COc1ccc(S(=O)(=O)N(C)C[C@@H]2Oc3ccc(NC(=O)Nc4ccc5c(c4)OCO5)cc3CC(=O)N([C@@H](C)CO)C[C@H]2C)cc1

assay / compound	21	22	23	24	25	26	27	28	29	30
DENV2 CPE rescue	55.4*!	-1.3	24.2*	-2.8	?	-3.5	82.7*	-2.5	-5.5	31.0*
E-selectin induc	-0.2	2.6	/	0.4	-0.4	/	/	0.1	428.6*	9.0
Cneo AK release	0.3	-1.6	-1.5	/	2.8	-0.7	-2.5	4.4	-2.4	-1.0
UUG fidelity	1.6	-2.4	-16.5	/	0.1	/	-2.5	-9.5	-13.4	-5.1

Part of the list above in another layout:
The line under a structure holds: DENV2 CPE rescue | E-selectin induc | Cneo AK release | UUG fidelity
#22 C[C@H]1CN([C@@H](C)CO)C(=O)c2cccc(NC(=O)Nc3ccc(F)cc3)c2O[C@@H]1CN(C)Cc1ccc(Oc2ccccc2)cc1
  -1.3 | 2.6 | -1.6 | -2.4
#23 C[C@H](CO)N1C[C@H](C)[C@@H](CN(C)Cc2ccc(Oc3ccccc3)cc2)Oc2c(NC(=O)Nc3ccc(C(F)(F)F)cc3)cccc2C1=O
  24.2* | / | -1.5 | -16.5
#24 NCC[C@@H]1CC[C@H](NC(=O)C2CC2)[C@@H](CO)O1
  -2.8 | 0.4 | / | /
#25 O=C(NCC[C@@H]1CC[C@@H](NC(=O)C2CCCCC2)[C@@H](CO)O1)c1cc(Cl)cc(Cl)c1
  ? | -0.4 | 2.8 | 0.1

Remaining list, next part
31) COCC(=O)N(C)C[C@H]1Oc2ncc(C#C[C@@H](C)O)cc2C(=O)N([C@@H](C)CO)C[C@H]1C
32) C/C=C/c1ccc2c(c1)O[C@H](CN(C)C(=O)C1CCOCC1)[C@H](C)CN([C@H](C)CO)S2(=O)=O
33) C[C@@H]1CN([C@@H](C)CO)C(=O)c2cc(N(C)C)ccc2O[C@@H](C)CCCCO[C@H]1CN(C)Cc1ccc(C(F)(F)F)cc1
34) CCn1cc(C(=O)O)c(=O)c2cc(F)c(N3CCN(C)CC3)cc21
35) COc1cc(CN(C)Cc2cccc3ccccc23)cc([N+](=O)[O-])c1O
36) CN(Cc1cccc([N+](=O)[O-])c1)Cc1cccc2ccccc12
37) COCC(=O)N1C[C@H]2CON(C)[C@H]2C[C@H]1c1cccc(-c2ccccc2)c1
38) C[C@@H]1CN([C@@H](C)CO)C(=O)c2cc(NS(=O)(=O)c3ccc(Cl)cc3)ccc2O[C@H]1CN(C)Cc1ccc2c(c1)OCO2
39) C[C@H](CO)N1C[C@H](C)[C@H](CN(C)C(=O)Nc2ccccc2)Oc2c(NS(=O)(=O)c3ccc(F)cc3)cccc2C1=O
40) C[C@H](CO)N1C[C@H](C)[C@H](CN(C)S(=O)(=O)c2ccc(Cl)cc2)Oc2ccc(NC(=O)c3ccncc3)cc2CC1=O

assay / compound	31	32	33	34	35	36	37	38	39	40
DENV2 CPE rescue	-3.9	-1.3	1.2	27.9*	42.5*	5.4	34.1*	-6.4	-1.3	-0.2
E-selectin induc	-0.3	0.3	-0.5	/	0.1	0.1	0.1	0.0	-0.4	0.0
Cneo AK release	6.4	1.7	4.3	-1.2	-1.4	-10.7	-4.5	2.0	-0.6	-1.0
UUG fidelity	-11.2	7.8	-2.1	-7.5	0.5	0.8	-10.7	6.9	2.8	0.2

41) Cc1ccc2c(c1)c1c3n2CCN(C(=O)CN2CCN(C)CC2)C3CCC1 (centres undefined)
42) Cc1ccc2c(c1)c1c3n2CCN(C(=O)C2CC2)C3CCC1 (centres undefined)
43) COc1ccccc1N1CCN(C(=O)c2ccco2)CC1
44) COc1ccc(Cl)c2sc(N3CCN(C(=O)c4ccco4)CC3)nc12
45) O=C(c1ccco1)N1CCN(C2c3ccccc3-c3ccccc32)CC1

assay / compound	41	42	43	44	45
DENV2 CPE rescue	/	54.4*	?	104.5*	54.4*
E-selectin induc	/	-0.8	34.5*	0.4	0.1
Cneo AK release	-6.9	-1.1	-0.4	/	-0.7
UUG fidelity	2.2	-13.4	0.1	/	-14.6
